Among the data in ChEMBL document CHEMBL1126972, “Synthesis of 2-imidazolidinylidenepropanedinitrile derivatives as stimulators of gastrointestinal motility” (J Med Chem, 1993) are EC30 values, retold here.

For this assay, the species on record is Cavia porcellus. Nature of the assay: In vitro gastrointestinal motility enhancing activity was determined by potentiating action on electrically evoked contraction of the isolated guinea pig ileum;No effect. It is filed as functional.

In the case of `Oc1nc2ccccc2n1CCNCc1ccc(CN2CCCCC2)o1`, the EC30 entry was “No effect”.
